System: HUVECs
Settings: 10 μM

CC1=C2C[C@H]3[C@@H](CC=C4C[C@@H](O)CC[C@@]43C)[C@@H]2CC[C@]12O[C@@H]1C[C@H](C)CN[C@H]1[C@H]2C [Cyc, Cyclopamine]
cell viability of HUVECs (HG culture conditions, vs HG alone (FIG. 6A)): significantly restore
increasing the cell viability of HUVECs treated with high glucose (compared with Vis and Gla at the same dosage (FIG. 5B)): best effect
